Target: Cholecystokinin receptor type A (Rattus norvegicus, UniProt P30551)
Assay: Displacement of [3H]L-364718 from Cholecystokinin type A receptor of rat pancreatic membranes
Type: cell membranes, Membrane
Outline: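 Male Wistar rat pancreas membranes, homogenized in 10 mM Hepes pH 7.4/5 mM MgCl2/130 mM NaCl, stored at -80 °C. GF/B filtration, scintillation counting. Nonspecific binding with 10 μM lorglumide. IC50 from pseudo-Hill plots, Ki by Cheng-Prusoff. Mean ± SEM of three experiments.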

Protein sequences, listed by entry. Tags and fused reporters are not part of them.
UniProt P30551, whole entry: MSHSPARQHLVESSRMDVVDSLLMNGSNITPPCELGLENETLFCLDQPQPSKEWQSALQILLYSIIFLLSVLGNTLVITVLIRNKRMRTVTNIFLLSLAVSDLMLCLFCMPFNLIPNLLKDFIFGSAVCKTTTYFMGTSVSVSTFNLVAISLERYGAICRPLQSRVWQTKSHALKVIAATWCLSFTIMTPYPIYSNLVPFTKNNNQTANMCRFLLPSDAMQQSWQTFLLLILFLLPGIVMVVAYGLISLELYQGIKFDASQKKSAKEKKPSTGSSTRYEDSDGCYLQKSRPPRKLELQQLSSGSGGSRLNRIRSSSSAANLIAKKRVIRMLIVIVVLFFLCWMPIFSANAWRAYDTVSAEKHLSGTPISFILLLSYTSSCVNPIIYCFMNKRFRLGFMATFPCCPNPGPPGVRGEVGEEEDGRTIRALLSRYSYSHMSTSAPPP

SMILES: O=C(NC/C=C/c1ccccc1)c1cc2ccccc2[nH]1
- Ki: 180 nM

Source: ChEMBL document CHEMBL1125403, “Hybrid cholecystokinin-A antagonists based on molecular modeling of lorglumide and L-364,718” (J Med Chem, 1992)
